Patent US20080014585A1, “SYNERGISTIC ACTIVATION OF REGULATORY ELEMENTS BY REL PROTEINS AND A STEROID RECEPTOR” (N.V. Organon, priority 2000, published 2008)

Protein sequences, listed by entry. Tags and fused reporters are not part of them.
UniProt Q92731, whole entry: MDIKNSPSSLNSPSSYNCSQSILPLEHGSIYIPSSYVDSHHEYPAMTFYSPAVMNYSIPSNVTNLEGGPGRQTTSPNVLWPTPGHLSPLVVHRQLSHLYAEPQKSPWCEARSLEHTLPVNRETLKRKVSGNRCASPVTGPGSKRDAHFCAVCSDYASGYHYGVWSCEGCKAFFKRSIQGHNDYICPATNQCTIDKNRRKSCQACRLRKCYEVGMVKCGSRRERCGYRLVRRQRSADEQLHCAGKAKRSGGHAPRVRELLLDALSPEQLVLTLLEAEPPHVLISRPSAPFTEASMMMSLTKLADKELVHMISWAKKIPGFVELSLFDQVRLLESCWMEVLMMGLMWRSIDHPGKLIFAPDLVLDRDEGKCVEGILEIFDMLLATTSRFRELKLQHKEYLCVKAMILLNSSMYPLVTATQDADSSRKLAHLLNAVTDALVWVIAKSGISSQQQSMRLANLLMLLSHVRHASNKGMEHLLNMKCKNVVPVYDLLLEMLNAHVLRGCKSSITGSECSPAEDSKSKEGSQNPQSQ

Columns and labels:
human ERβ [1] = biological target: T1, human ERβ (Homo sapiens, UniProt Q92731); type: cell-based; conditions: COS-1 cells, -901luc, 10^−8 M E2 for 24 h
T1 construct: expressed in transfected cells; host or cells: COS-1 (monkey)

human ERβ [2] = biological target: T1, human ERβ; type: cell-based; conditions: COS-1 cells, -901luc, 10^−8 M E2 for 24 h; remark: listed apart in the source

Substance: 17β-estradiol
- effect on 5-HT1A promoter activity, ERβ cotransfected, no NF-κB (human ERβ [1]): hardly had an effect
- induction of 5-HT1A receptor promoter activity by ERβ cotransfected with NF-κB (human ERβ [2]): no effect
